HDAC3 inh = blocks human histone deacetylase 3; 320,000 compounds, 0.15% hits; AID 2718; inhibition, % at 8.3 µM; recombinant HDAC3, fluorogenic peptide/trypsin coupled, fluorescence; O15379; in the data active = inhibition above about 26%, passing the limit was not always enough
Yeast UUG start = modulators of start codon recognition fidelity in yeast; activity score, % at 18.7 µM; actives 0.13% (n = 350,000); S. cerevisiae UUG-firefly luciferase reporter, luminescence/redox ratio;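 active = replicate mean at a twofold rise or more, about +100% in these data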;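 note: firefly luciferase made from a UUG start codon reports start codon fidelity; reporter light over untreated wells divided by growth signal over untreated wells; some hits fall short of that in this replicate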
NALP1 yeast inh = blocks the NALP1 inflammasome reconstituted in yeast | S. cerevisiae NALP1/ASC/caspase-1 growth, X-gal OD620, 72 h | inhibition, % at 10 µM | 280,000 compounds, 0.61% hits; in the data active = inhibition mostly above about 24%, no sharp cut-off; inactive = mostly below about 32%
MC4R barr agon = activates human MC4R beta-arrestin recruitment; P32245; U2OS MC4R beta-arrestin complementation, luminescence; percent of melanotan II response, DMSO zero; activation, % at 8.9 µM; 360,000 compounds, 0.98% hits;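 active = activation above a per-plate cutoff, the mean activation of sample wells on that plate plus 3 SD, cut at about 8% in these data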
ALR H2O2 inh = human ALR oxidase inhibition via reduced H2O2; P55789; purified ALR, DTT oxidation, H2O2 HRP-luminol luminescence; inhibition, % (test concentration not listed); actives 3.8% (n = 290,000); AID 485317;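 active means mean and each replicate at 75% or more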;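 further: stock transfer was 7.5 nL into about 7.5 µL; 0% = neutral wells and 100% = wells with inactivated enzyme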
MC4R antagonist = human MC4R antagonism in cAMP assay; MC4R-expressing cells, MTII-stimulated cAMP, LANCE TR-FRET; 360,000 compounds, 0.48% hits; AID 540295; inhibition, % at 6.5 µM;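 active = inhibition above its plate's cutoff, the mean of tested wells on that plate plus 3 SD, cut at about 29% in these data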;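 note: 0% = Melanotan II alone and 100% = Melanotan II plus saturating MCL0020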
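System: U2OS-MC4R stable cell line; Technique: Eu-cAMP/anti-cAMP TR-FRET, emission 671 nm; Repeats: single well per compound; Also added: Melanotan II; Dosing: one concentration, 6.5 µM nominal; Schedule: 30-min compound, 1-h challenge, 1-h detection, room temperature.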
* = called active by the depositor. Sampled rows, rich in hits. Any-hit rate of the full collection: about 4.2%.

The first 3 entries, ahead of the listing:
What do the screens show for `COC(=O)c1cc(=O)n(Cc2ccc(OC)c(OC)c2)c(=Nc2ccc(F)cc2)s1`?
HDAC3 inh: 0; Yeast UUG start: -3; NALP1 yeast inh: 40*; MC4R barr agon: -2; ALR H2O2 inh: -3; MC4R antagonist: -3

What do the screens show for `O=C(CSc1nncc2ccccc12)Nc1ccc(C(=O)O)cc1`?
HDAC3 inh: 2; Yeast UUG start: -11; NALP1 yeast inh: -27; MC4R barr agon: 0; ALR H2O2 inh: 100*; MC4R antagonist: 1

Results for O=C(CSc1nncc2ccccc12)Nc1ccccc1 ?
HDAC3 inh: -2; NALP1 yeast inh: 11; MC4R barr agon: 1; ALR H2O2 inh: 99*; MC4R antagonist: -3

This part in full, repeating the preview:
What do the screens show for `COC(=O)c1cc(=O)n(Cc2ccc(OC)c(OC)c2)c(=Nc2ccc(F)cc2)s1`?
HDAC3 inh: 0; Yeast UUG start: -3; NALP1 yeast inh: 40*; MC4R barr agon: -2; ALR H2O2 inh: -3; MC4R antagonist: -3

What do the screens show for `O=C(CSc1nncc2ccccc12)Nc1ccc(C(=O)O)cc1`?
HDAC3 inh: 2; Yeast UUG start: -11; NALP1 yeast inh: -27; MC4R barr agon: 0; ALR H2O2 inh: 100*; MC4R antagonist: 1

Results for O=C(CSc1nncc2ccccc12)Nc1ccccc1 ?
HDAC3 inh: -2; NALP1 yeast inh: 11; MC4R barr agon: 1; ALR H2O2 inh: 99*; MC4R antagonist: -3

What do the screens show for `O=C(CSc1nncc2ccccc12)Nc1ccc(F)cc1`?
HDAC3 inh: 6; Yeast UUG start: -6; NALP1 yeast inh: 14; MC4R barr agon: -2; ALR H2O2 inh: -7; MC4R antagonist: 3

Results for O=C(NNc1ccc(Cl)cc1)c1c(F)cccc1Cl ?
NALP1 yeast inh: 3; MC4R barr agon: -3; ALR H2O2 inh: 13; MC4R antagonist: -5

How did CC(=O)C(=Nc1ccccc1Cl)NNc1ccc(Cl)cc1 do in these assays?
HDAC3 inh: -1; Yeast UUG start: -25; NALP1 yeast inh: 6; MC4R barr agon: 0; ALR H2O2 inh: 95*; MC4R antagonist: 5

What do the screens show for `O=C(c1ccc(-c2ccc([N+](=O)[O-])cc2)o1)N1CCCCC1`?
HDAC3 inh: 11; Yeast UUG start: -33; NALP1 yeast inh: 5; MC4R barr agon: -2; ALR H2O2 inh: 1; MC4R antagonist: -4

What do the screens show for `CC1CC(C)CN(C(=O)c2ccc(-c3ccc([N+](=O)[O-])cc3)o2)C1` (stereo unspecified)?
HDAC3 inh: 3; Yeast UUG start: -3; MC4R barr agon: -2; ALR H2O2 inh: 89*; MC4R antagonist: 17

Results for C[C@@H]1CN([C@H](C)CO)S(=O)(=O)c2ccc(C3=CCCC3)cc2O[C@@H]1CN(C)Cc1cccc(C(=O)O)c1 ?
Yeast UUG start: 6

How did CCCCC1CCCOC(C(=O)NCCNCCO)(C(F)(F)F)C1 (stereo unspecified) do in these assays?
HDAC3 inh: 0; Yeast UUG start: -1; MC4R barr agon: -1; ALR H2O2 inh: -8; MC4R antagonist: -1

What do the screens show for `CCCC[C@@H]1CCCO[C@@](C(=O)NCc2ccc(C)o2)(C(F)(F)F)C1`?
HDAC3 inh: 4; Yeast UUG start: -15; MC4R barr agon: -2; ALR H2O2 inh: 90*; MC4R antagonist: 12

How did CC(Sc1nnc(-c2ccco2)n1C)C(=O)N1C(C)CCCC1C (stereo unspecified) do in these assays?
HDAC3 inh: 3; Yeast UUG start: -6; NALP1 yeast inh: 36*; MC4R barr agon: -1; ALR H2O2 inh: 1; MC4R antagonist: 11

Results for O=S(=O)(c1ccccc1)N1CCN(Cc2cccc(OCCO)c2)CC1 ?
Yeast UUG start: -11

What do the screens show for `C#CCOCCOCCOCCNc1nc(N2CCN(C(=O)CCCCCCCCCCNC(=O)[C@H]([C@@H](C)CC)n3cc(CCCCCN)nn3)CC2)nc(N2CCN(C(=O)CCCCCCCCCCNC(=O)[C@H]([C@@H](C)CC)n3cc(CCCCN=C(N)N)nn3)CC2)n1`?
HDAC3 inh: 22; Yeast UUG start: -1; MC4R barr agon: -1; ALR H2O2 inh: 2; MC4R antagonist: 57*

What do the screens show for `CC(C)(C)OC(=O)CC[C@@H](C(=O)NCCCCCCCCCCC(=O)N1CCN(C(=O)OC(C)(C)C)CC1)n1cc(CCCCCNC(=O)OC(C)(C)C)nn1`?
HDAC3 inh: -7; Yeast UUG start: 1; MC4R barr agon: -1; ALR H2O2 inh: -41; MC4R antagonist: 10

What do the screens show for `C#CCOCCOCCOCCNc1nc(N2CCN(C(=O)CCCCCCCCCCNC(=O)[C@H]([C@@H](C)CC)n3cc(CCCCN=C(N)N)nn3)CC2)nc(N2CCN(C(=O)CCCCCCCCCCNC(=O)[C@H](CO)n3cc(CCCCCN)nn3)CC2)n1`?
HDAC3 inh: 21; Yeast UUG start: -6; MC4R barr agon: -1; ALR H2O2 inh: -12; MC4R antagonist: 32*

What do the screens show for `CC(C)(C)OC(=O)NCCCCCc1cn([C@@H](CO)C(=O)NCCCCCCCCCCC(=O)N2CCN(C(=O)OC(C)(C)C)CC2)nn1`?
HDAC3 inh: 31*; Yeast UUG start: 11; MC4R barr agon: 5; ALR H2O2 inh: -54; MC4R antagonist: 17

Results for C#CCOCCOCCOCCNc1nc(N2CCN(C(=O)CCCCCCCCCCNC(=O)[C@H]([C@@H](C)CC)n3cc(CCCCCN)nn3)CC2)nc(N2CCN(C(=O)CCCCCCCCCCNC(=O)[C@H](CO)n3cc(CCCCCN)nn3)CC2)n1 ?
HDAC3 inh: 11; Yeast UUG start: 9; MC4R barr agon: -1; ALR H2O2 inh: -10; MC4R antagonist: 23

Results for CCC(=O)N1[C@H](CO)[C@@H](c2ccccc2)[C@@H]1CN(C(C)C)S(C)(=O)=O ?
Yeast UUG start: 28

Results for CC(C)C#Cc1cnc2c(c1)C(=O)N([C@@H](C)CO)C[C@@H](C)[C@@H](CN(C)Cc1ccccc1)O2 ?
Yeast UUG start: 4

How did CCCC#Cc1cnc2c(c1)C(=O)N([C@H](C)CO)C[C@H](C)[C@H](CN(C)C(=O)Nc1ccccc1OC)O2 do in these assays?
Yeast UUG start: 16

What do the screens show for `CNC(=O)C[C@H]1CC[C@@H]2[C@@H](COc3ccc(NC(=O)c4ccccc4Cl)cc3C(=O)N2C)O1`?
Yeast UUG start: 1

How did CC(C)C#Cc1cnc2c(c1)C(=O)N([C@H](C)CO)C[C@@H](C)[C@@H](CN(C)C(=O)c1ccccc1F)O2 do in these assays?
Yeast UUG start: 8

How did COCC(C)N=Cc1c(O)[nH]c2ccccc12 (stereo unspecified) do in these assays?
Yeast UUG start: 20; NALP1 yeast inh: 4; MC4R barr agon: 1; ALR H2O2 inh: 99*; MC4R antagonist: 1

What do the screens show for `OCCN=Cc1c(O)[nH]c2ccccc12`?
HDAC3 inh: 6; Yeast UUG start: -5; NALP1 yeast inh: -5; MC4R barr agon: 1; ALR H2O2 inh: 99*; MC4R antagonist: 2

What do the screens show for `CC(C)CC(=O)N=Nc1c(O)[nH]c2ccccc12`?
Yeast UUG start: -12; NALP1 yeast inh: -4; MC4R barr agon: -1; ALR H2O2 inh: -3; MC4R antagonist: -5

How did Oc1[nH]c2ccccc2c1C=Nc1ccccc1 do in these assays?
Yeast UUG start: -2; NALP1 yeast inh: 8; MC4R barr agon: -3; MC4R antagonist: 18

Results for CN(C)CC(C)(C)CN=Cc1c(O)[nH]c2ccccc12 ?
HDAC3 inh: 2; Yeast UUG start: -7; NALP1 yeast inh: 14; MC4R barr agon: 2; ALR H2O2 inh: 99*; MC4R antagonist: -7

High-throughput results: PubChem, several laboratories
